In US4956363A, “Treatment of cognitive and behavioral disorders associated with aging and with dementia syndromes” (U C B S.A., priority 1988, dated 1990):

Test system: male NMRI mice
Assay: Toxicity, Irwin's test
Type: in vivo
Conditions: i.p., death of two animals out of three within 48 hours
Experimental: The toxicity of the compounds of the formula I has been determined on male NMRI mice by means of the Irwin's test (S. IRWIN, Psychopharmacologia, 13, (1968), 222-257).
Progressive doses of the compound to be tested are administered intraperitoneally to groups of three mice until the lethal dose is reached (dose which causes the death of two animals out of three within 48 hours).
Table VI below gives the lethal dose observed for the compounds of the formula I to be used according to the invention.

## CNC(=O)Oc1ccc2c(c1)[C@]1(C)CCN(C)[C@@H]1N2C [physostigmine, reference compound]
  Lethal dose: 0.82 mg/kg
